Results taken from patent US7601685B2, “Growth factor modified protein matrices for tissue engineering” (Eidgenossische Technische Hochschule Zurich, priority 1998, dated 2009).

What was measured:
[1] = tested on: critical size rat cranial defect; conditions: by 3 weeks; stated as reason for the early timepoint; cited from earlier work
[2] = tested on: ectopic model of bone formation; assay: Ectopic bone formation, fibrin matrices implanted subcutaneously in rats; assay type: in vivo; conditions: fibrin matrices with delivery system, subcutaneous in rats
Description: The ability of a heparin-containing delivery system to deliver growth factors in an active form was tested in an ectopic model of bone formation, where fibrin matrices containing the delivery system and BMP-2 were implanted subcutaneously in rats. […] (See Example 5).
Fibrin gels were synthesized with a different bi-domain peptide with the sequence LNQEQVSPK(αA)FAKLAARLYRKA (SEQ ID NO:36). This peptide is derived from the Factor XIIIa substrate sequence for α2-plasmin inhibitor in the first domain and a mimetic of the heparin binding domain of antithrombin III in the second domain. BMP-2 is a heparin binding protein and binds to the sequence given above. Gels were polymerized in the presence of the peptide (at 1 mM), heparin and recombinant human BMP-2 in ratios of heparin to BMP-2 of 1:1 and 40:1.
Control gels were created that had equivalent amounts of the morphogenetic protein, BMP-2, but lacking the heparin and bi-domain peptide. These gels were then implanted subcutaneously into rats and were allowed to remain for two weeks.

B1: BMP-2: recombinant human BMP-2, a heparin binding protein (protein, UniProt P12643 283-396, looked up)
Bone morphogenetic protein 2: QAKHKQRKRLKSSCKRHPLYVDFSDVGWNDWIVAPPGYHAFYCHGECPFPLADHLNSTNHAIVQTLVNSVNSKIPKACCVPTELSAISMLYLDENEKVVLKNYQDMVVEGCGCR
healing effect [1]: strong healing effect | conditions for bone formation ([2]; heparin to growth factor ratio 1:1): favorable conditions for bone formation | effect on bone formation ([2]; heparin to growth factor ratios 5:1 or greater): inhibitory to bone formation
